From US9050375B2, “Bi-specific digoxigenin binding antibodies” (priority 2009, dated 2015)

System: AHA1 mRNA in MCF-7 breast cancer cells
Experiment: bDNA quantification after DIG-labeled siRNA-lipid nanoparticles with <Target-DIG> antibodies
Type: cell-based
Conditions: no siRNA; 3.24 nM antibody; MCF-7, 12 h
Protocol: DIG-labeled siRNA-lipid nanoparticles containing 1 pmol of AHA1-, DIG-coupled AHA1-, or luciferase (LUC)-siRNAs were incubated with 3.24 pmol of bispecific antibodies directed against either the tumor-associated LewisY oligosaccharide and DIG <LeY-DIG> or against the sialic acid-binding transmembrane protein, CD22, and DIG <CD22-DIG> or with Dulbecco's Phosphate Buffered Saline (D-PBS) (Invitrogen, Carlsbad, Calif.) in a final volume of 200 μl Opti-MEM® (Invitrogen GmbH, Darmstadt, Germany) at RT for 30 min.
MCF-7 cells were seeded on a 96-well plate with a density of 15,000 cells/well in 80 μl medium (RPMI 1640 Medium, 10% fetal calf serum, 100 U/ml penicillin/streptomycin; Biochrom AG, Berlin, Germany) and incubated overnight in a cell incubator (37° C., 95% H2O, 5% CO2). Following pre-incubation of DIG-labeled siRNA-lipid nanoparticles with <Target-DIG> bispecific antibodies (see above), 20 μl of the mixtures were added to MCF-7 cells, leading to a final volume of 100 μl containing 1 nM siRNA and no antibodies (no AB) or 1 nM siRNA and 3.24 nM of either <LeY-DIG> (LeY) or <CD22-DIG> (CD22) antibodies. Cells were incubated for 12 hours in a cell incubator. […] After incubation, cells were lysed and AHA1- and GAPDH-mRNA concentrations were quantified using a commercially available bDNA-quantification system (Affymetrix Inc., Fremont, Calif.). […]

B1: CD22-DIG: bispecific antibody against CD22 and DIG; non-targeting control on MCF7 (antibody)
heavy: EVQLVESGGGLVKPGGSLKLSCAASGFAFSIYDMSWVRQTPEKRLEWVAYISSGGGTTYYPDTVKGRFTISRDNAKNTLYLQMSSLKSEDTAMYYCARHSGYGSSYGVLFAYWGQGTLVTVSAASTKGPSVFPLAPSSKSTSGGTAALGCLVKDYFPEPVTVSWNSGALTSGVHTFPAVLQSSGLYSLSSVVTVPSSSLGTQTYICNVNHKPSNTKVDKKV[human IgG1 Fc not shown]GGGGSGGGGSQVQLVESGGGLVKPGGSLRLSCAASGFTFSDYAMSWIRQAPGKCLEWVSSINIGATYIYYADSVKGRFTISRDNAKNSLYLQMNSLRAEDTAVYYCARPGSPYEYDKAYYSMAYWGQGTTVTVSSGGGGSGGGGSGGGGSDIQMTQSPSSLSASVGDRVTITCRASQDIKNYLNWYQQKPGKAPKLLIYYSSTLLSGVPSRFSGSGSGTDFTLTISSLQPEDFATYYCQQSITLPPTFGCGTKVEIK
light: DIQMTQTTSSLSASLGDRVTISCRASQDISNYLNWYQQKPDGTVKLLIYYTSILHSGVPSRFSGSGSGTDYSLTISNLEQEDFATYFCQQGNTLPWTFGGGTKLEIKRTVAAPSVFIFPPSDEQLKSGTASVVCLLNNFYPREAKVQWKVDNALQSGNSQESVTEQDSKDSTYSLSSTLTLSKADYEKHKVYACEVTHQGLSSPVTKSFNRGEC
relative AHA1-mRNA concentration, only antibody: 96.3%
